According to ChEMBL document CHEMBL4402585 (J Med Chem, 2020):

Tests used:
[1] = biological target: T1, Bromodomain-containing protein 4 (Homo sapiens, UniProt O60885); experiment: (§1) Inhibition of SGRG-K(Ac)-GG-K(Ac)-GLG-K(Ac)-GGA-K(Ac)-RHRKVGG-K-Biotin binding to N-terminal His6-tagged BRD4 bromodomain 2 (344 to 455 residues) (unknown origin) expressed in Escherichia coli BL21 (DE3) preincubated for 15 mins followed by biotin-labeled H4 peptide addition and measured after 10 mins by Alphascreen assay
[2] = biological target: T1, Bromodomain-containing protein 4; experiment: as §1, with “1 (49” for “2 (344”, “170” for “455”

Compound `Cc1cc(-c2cc(NS(C)(=O)=O)ccc2Oc2ccccc2)n2cc[nH]c(=O)c12` has a pIC50 [1] of 7.59 and a pIC50 [2] of 7.82.

pIC50: −log10 of the molar value.
